# What was measured:
# Protein sequences, listed by entry. Tags and fused reporters are not part of them. Residues count along the entry.
# UniProt Q9NYK1, 27-1049 limits assumed: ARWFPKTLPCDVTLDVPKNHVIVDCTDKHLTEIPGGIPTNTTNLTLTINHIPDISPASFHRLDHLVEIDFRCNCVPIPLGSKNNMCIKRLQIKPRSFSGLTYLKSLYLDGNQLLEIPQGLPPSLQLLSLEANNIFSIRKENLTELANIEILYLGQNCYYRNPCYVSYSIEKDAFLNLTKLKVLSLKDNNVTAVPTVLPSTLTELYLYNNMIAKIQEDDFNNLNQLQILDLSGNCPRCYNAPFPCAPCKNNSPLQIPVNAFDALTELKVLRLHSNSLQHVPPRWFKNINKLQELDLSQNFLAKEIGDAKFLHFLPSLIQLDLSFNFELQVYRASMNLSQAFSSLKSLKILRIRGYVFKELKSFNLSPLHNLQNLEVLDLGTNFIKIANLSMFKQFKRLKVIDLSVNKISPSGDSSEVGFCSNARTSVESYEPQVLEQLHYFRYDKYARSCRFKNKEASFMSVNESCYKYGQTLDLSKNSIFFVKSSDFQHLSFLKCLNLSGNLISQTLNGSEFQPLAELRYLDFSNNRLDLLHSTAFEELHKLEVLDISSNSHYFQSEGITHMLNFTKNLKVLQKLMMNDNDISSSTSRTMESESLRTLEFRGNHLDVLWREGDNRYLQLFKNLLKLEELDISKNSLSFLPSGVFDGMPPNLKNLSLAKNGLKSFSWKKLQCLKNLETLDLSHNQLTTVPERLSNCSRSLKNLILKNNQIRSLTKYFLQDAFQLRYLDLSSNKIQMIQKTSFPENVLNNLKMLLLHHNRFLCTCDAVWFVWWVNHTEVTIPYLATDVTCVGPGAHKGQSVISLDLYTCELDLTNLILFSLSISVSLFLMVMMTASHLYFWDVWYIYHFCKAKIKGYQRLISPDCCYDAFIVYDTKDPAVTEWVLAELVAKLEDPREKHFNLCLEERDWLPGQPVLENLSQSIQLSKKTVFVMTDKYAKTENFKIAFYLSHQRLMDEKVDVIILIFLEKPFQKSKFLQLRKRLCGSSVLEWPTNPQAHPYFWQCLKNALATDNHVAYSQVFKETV
# human TLR7 = human TLR7 (Homo sapiens (Human), UniProt Q9NYK1); test: HEK-Blue TLR7 reporter assay (TLR7 agonism); assay type: cell-based; settings: read-out: TLR7 Agonism (EC50); HEK-Blue TLR7 cells, SEAP reporter, 18 h treatment; tested form: TFA salt
# interleukin 6 (IL-6) = test: Interleukin 6 induction assay in human whole blood; settings: read-out: IL-6 Induction (EC50), 37° C. for 20 h, AlphaLISA, tested form: TFA salt
smiles,measurement,setting,value
CCCCOc1nc(N)c2nc(O)n(Cc3ccc(-c4cnn(CC(=O)NCCN)c4)cc3)c2n1,EC50,human TLR7,5.9 nM
same,EC50,interleukin 6 (IL-6),12.6 nM

# From patent US10487084B2, “Toll-like receptor 7 (TLR7) agonists having a heterobiaryl moiety, conjugates thereof, and methods and uses therefor” (BRISTOL-MYERS SQUIBB COMPANY, priority 2017, dated 2019)
